Data on one molecule can be found in publication PMC5003402 (Journal of structural biology, 2016).

The target of the assay is T1, thioredoxin reductase (EhTrxR) (Entamoeba histolytica, UniProt C4LW95).
T1 sequence (C4LW95 1-314): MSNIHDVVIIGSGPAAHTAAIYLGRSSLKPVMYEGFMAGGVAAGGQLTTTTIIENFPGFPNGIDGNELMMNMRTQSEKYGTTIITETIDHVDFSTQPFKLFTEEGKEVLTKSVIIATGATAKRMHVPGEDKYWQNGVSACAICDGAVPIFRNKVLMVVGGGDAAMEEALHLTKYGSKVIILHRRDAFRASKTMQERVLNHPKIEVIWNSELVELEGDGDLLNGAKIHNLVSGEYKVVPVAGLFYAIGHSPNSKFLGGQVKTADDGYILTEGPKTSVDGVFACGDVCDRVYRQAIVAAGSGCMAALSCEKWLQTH
Briefly: Trx/DTNB-coupled TNB release assay at […] nm with purified EhTrxR. The assay is classed as biochemical.

On to `CC[P](CC)(CC)=[Au][S][C@@H]1O[C@H](COC(C)=O)[C@@H](OC(C)=O)[C@H](OC(C)=O)[C@H]1OC(C)=O` [Auranofin], for which the EC50 (as a rule, the concentration at which the effect is half-maximal) is 0.4 µM.
